# Where two headings read alike, the source gives them in different places.
# Test system: protease from Conidiobolus brefeldianus MTCC 5185
# Procedure: This example illustrates the stability of the protease in presence of salts. […] Aliquots were removed at regular intervals of 30 min and residual activity was estimated at 50° C., pH 9.
substance,measurement,setting,value
Ammonium sulphate [(NH4)2SO4],Residual Activity (%) of protease at 50° C.,"10 mM CaCl2, 0.5M NaCl, 0.5M glycine or 15% (NH4)2SO4, 0 min",100.00%
same,Residual Activity (%) of protease at 50° C.,"salt concentration as in column head, 30 min",82.27%
same,Residual Activity (%) of protease at 50° C.,"salt concentration as in column head, 60 min",71.87%
same,Residual Activity (%) of protease at 50° C.,"salt concentration as in column head, 90 min",64.72%
same,Residual Activity (%) of protease at 50° C.,"salt concentration as in column head, 120 min",60.25%
same,Residual Activity (%) of protease at 50° C.,"salt concentration as in column head, 180 min",55.19%
same,Residual Activity (%) of protease at 50° C.,"salt concentration as in column head, 180 min, listed as ammonium sulphate",around 55%

# Reference: patent publication US20130115671A1, “ENZYMES FROM CONIDIOBOLUS BREFELDIANUS AND PROCESS FOR PREPARATION THEREOF” (Council of Scientific and Industrial Research, priority 2010, published 2013)
